Consider 1 substance from patent US6476187B1, “Methods and reagents for discovering and using mammalian melanocortin receptor agonists and antagonists to modulate feeding behavior in animals” (Oregon Health & Sciences University, priority 1992, dated 2002).

The chains behind the UniProt entries cited, without tags or fusion partners. Where a name states a change or a piece, a line headed by the entry shows the natural chain unless it says otherwise.
UniProt Q01727: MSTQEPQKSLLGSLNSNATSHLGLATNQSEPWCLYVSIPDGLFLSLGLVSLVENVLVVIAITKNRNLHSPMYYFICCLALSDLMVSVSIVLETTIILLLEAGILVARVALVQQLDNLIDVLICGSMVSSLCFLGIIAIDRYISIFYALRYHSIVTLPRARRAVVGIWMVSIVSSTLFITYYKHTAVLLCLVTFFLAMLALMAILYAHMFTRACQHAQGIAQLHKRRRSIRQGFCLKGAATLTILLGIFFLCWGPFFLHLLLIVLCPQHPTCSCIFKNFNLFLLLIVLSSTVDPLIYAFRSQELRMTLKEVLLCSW

The assay concerns the target T1, murine αMSH receptor (MC-1) (Mus musculus, UniProt Q01727).
T1 construct: excising the entire coding region of the αMSH^R (MC-1) cDNA insert comprising a 2.1 kb fragment; expressed in transfected cells; host or cells: human 293 cells, pcDNAI/neo, G418-selected
Kind of assay: intracellular cAMP accumulation in 293 cells transfected with mouse αMSH receptor. The assay is classed as cell-based. As to conditions: read-out: EC50 (intracellular cAMP); 293 cells expressing murine αMSH receptor, 45 min at 37° C.

A word on the EC50: it is the midpoint of the concentration-response curve. With “α-melanocyte stimulating hormone [α-MSH]”, the EC50 is 2 nM.
